Data taken from BindingDB's records for patent US10087191 (Jiangsu Hengrui Medicine, 2018).

The chains behind the UniProt entries cited, without tags or fusion partners.
UniProt P03372, whole entry: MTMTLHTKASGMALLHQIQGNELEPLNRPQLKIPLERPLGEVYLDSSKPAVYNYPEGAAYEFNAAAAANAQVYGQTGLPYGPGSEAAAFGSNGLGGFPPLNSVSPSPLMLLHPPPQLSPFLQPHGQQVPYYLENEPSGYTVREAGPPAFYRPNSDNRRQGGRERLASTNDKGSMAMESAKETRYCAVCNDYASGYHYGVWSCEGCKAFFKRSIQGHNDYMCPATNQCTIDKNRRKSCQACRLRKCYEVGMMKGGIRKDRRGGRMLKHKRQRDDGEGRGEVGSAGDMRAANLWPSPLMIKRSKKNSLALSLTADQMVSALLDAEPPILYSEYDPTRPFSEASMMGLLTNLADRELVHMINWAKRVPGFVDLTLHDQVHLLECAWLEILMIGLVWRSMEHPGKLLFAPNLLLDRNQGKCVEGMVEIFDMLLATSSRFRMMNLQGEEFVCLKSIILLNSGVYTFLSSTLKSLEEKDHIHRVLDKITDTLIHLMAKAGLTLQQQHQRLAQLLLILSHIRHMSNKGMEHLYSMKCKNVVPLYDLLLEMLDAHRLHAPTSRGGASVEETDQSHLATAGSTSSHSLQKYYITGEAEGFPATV

Each molecule was assayed against Estrogen receptor (Homo sapiens, UniProt P03372) (assay: Biological Assay).

Q: Which IC50 does the source give for Cc1ncc(-c2ccc3c(c2)CC(C)N(CC(C)(C)F)C3c2c(F)cc(/C=C/C(=O)O)cc2F)s1 (stereo not drawn) [US10087191, Example 10] here?
A: 1.26 nM

Q: Which IC50 does the source give for CCn1cc(-c2ccc3c(c2)CC(C)N(CC(C)(C)F)C3c2c(F)cc(/C=C/C(=O)O)cc2F)cn1 (stereo not drawn) [US10087191, Example 20] here?
A: 0.86 nM

Q: Which IC50 does the source give for CC1Cc2cc(-c3cn[nH]c3)ccc2C(c2c(F)cc(/C=C/C(=O)O)cc2F)N1CC(C)(C)F (stereo not drawn) [US10087191, Example 24] here?
A: 1.59 nM
